Target: T1, DNA gyrase of Escherichia coli (Escherichia coli, UniProt P0AES4+P0AES6)
T1 construct: purchased John Innes Enterprises #K0001
Assay: DNA gyrase inhibition (supercoiling assay kit), Exp. Ex. 1-2
Type: biochemical
Settings: E. coli DNA gyrase supercoiling, relaxed pBR322, 37° C., 30 minutes

Amino acid sequences for entries named in this document (tags omitted).
UniProt P0AES4, whole entry: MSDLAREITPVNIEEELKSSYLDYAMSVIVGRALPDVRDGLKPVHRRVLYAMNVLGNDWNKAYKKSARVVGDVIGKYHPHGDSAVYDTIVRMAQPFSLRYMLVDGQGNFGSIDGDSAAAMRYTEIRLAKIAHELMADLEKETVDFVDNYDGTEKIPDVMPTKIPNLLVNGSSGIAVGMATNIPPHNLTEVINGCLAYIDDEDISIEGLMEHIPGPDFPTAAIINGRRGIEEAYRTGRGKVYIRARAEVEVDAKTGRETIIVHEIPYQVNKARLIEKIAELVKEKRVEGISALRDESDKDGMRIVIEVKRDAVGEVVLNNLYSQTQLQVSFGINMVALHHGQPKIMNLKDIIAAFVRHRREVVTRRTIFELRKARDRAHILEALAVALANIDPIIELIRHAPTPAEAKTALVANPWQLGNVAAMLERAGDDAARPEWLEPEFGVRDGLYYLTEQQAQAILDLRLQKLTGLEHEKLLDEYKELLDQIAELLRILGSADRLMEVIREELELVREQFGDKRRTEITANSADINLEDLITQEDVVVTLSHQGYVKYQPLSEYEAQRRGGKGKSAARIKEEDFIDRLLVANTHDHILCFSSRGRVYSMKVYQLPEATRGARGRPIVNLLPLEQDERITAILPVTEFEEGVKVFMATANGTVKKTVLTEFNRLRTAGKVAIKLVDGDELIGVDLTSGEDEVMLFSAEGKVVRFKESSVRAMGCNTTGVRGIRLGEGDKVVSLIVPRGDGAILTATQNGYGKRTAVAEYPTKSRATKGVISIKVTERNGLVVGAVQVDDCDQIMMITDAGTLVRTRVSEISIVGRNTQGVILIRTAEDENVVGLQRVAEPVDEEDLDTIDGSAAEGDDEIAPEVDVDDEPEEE

2-(3′,4′-Dihydroxy)-5,7-dihydroxy-3-β-D-(2″,3″-di-p-flurobenzyloxy)glucosyl-4H-chromen-4-one [Compound 15h]
Gyrase inhibitory activity IC50: 2.04 µg/mL

Reference: patent US8916526B2, “Flavanone derivative” (National University Corporation Okayama University, priority 2009, dated 2014)
